Data published in publication PMC10081574, “Evaluation of Antiviral Activity of Gemcitabine Derivatives against Influenza Virus and Severe Acute Respiratory Syndrome Coronavirus 2” (ACS Infectious Diseases, 2023).

Tests used:
B/Lee/40 = assay: CPE reduction antiviral assay in Lee-infected MDCK cells (MTT); format: cell-based, influenza B virus
[1] = tested on: A/Puerto Rico/8/34 (H1N1); parameters: unit not given beside the values
A/Hong Kong/8/68 (H3N2) = tested on: A/Hong Kong/8/68 (H3N2); parameters: unit not given beside the values

In the case of NC(=O)c1ncn([C@@H]2O[C@H](CO)[C@@H](O)[C@H]2O)n1 [Ribavirin, reference compound], the “SI90 Lee” value (B/Lee/40; ratio of CC10 to EC90) was 2.1, the “SI50 Lee” value (B/Lee/40; ratio of CC50 to EC50) was greater than 27.0 and the “SI50 PR8” value [1] was 20.1 ± 2.1 (>14.9). The “SI90 PR8” value [1] was 79.4 ± 33.1 (3.8), the “SI50 HK” value (A/Hong Kong/8/68 (H3N2)) was 20.4 ± 0.9 (>14.7) and the “SI90 HK” value (A/Hong Kong/8/68 (H3N2)) was 59.5 ± 6.7 (5.0).
